Results from ChEMBL document CHEMBL4725320 (Bioorg Med Chem Lett, 2020).

Target: T1, Nuclear receptor subfamily 1 group D member 1 (Homo sapiens, UniProt P20393)
T1 sequence (P20393 whole entry): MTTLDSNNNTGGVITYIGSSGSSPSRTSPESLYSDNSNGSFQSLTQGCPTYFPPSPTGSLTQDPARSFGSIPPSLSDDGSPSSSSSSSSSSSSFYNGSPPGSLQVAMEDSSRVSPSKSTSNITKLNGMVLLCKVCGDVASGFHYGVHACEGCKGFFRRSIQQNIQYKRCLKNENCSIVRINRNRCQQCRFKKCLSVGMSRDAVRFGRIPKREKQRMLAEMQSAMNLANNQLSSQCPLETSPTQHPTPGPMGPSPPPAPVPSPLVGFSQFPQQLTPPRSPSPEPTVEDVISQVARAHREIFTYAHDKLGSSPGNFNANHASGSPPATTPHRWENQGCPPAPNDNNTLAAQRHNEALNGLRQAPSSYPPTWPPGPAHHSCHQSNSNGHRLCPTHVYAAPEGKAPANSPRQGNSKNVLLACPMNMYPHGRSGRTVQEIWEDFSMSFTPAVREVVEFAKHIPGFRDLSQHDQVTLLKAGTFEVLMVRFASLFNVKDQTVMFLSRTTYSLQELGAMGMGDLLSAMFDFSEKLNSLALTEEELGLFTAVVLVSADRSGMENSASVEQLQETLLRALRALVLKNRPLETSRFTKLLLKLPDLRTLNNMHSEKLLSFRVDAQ
Test: Agonist activity at Rev-Erb alpha (unknown origin) by FRET assay
Type: single protein

- EC50: 620 nM
Compound: CCOC(=O)N1CCC(CN(Cc2ccc(Cl)cc2)Cc2ccc([N+](=O)[O-])s2)C1 (stereo unspecified) [SR9009]
